System: HCV genotype 1b (Con1) replicon
Test: Anti-HCV luciferase reporter assay on Huh-luc/neo-ET replicon cells
Conditions: 72 h treatment

## IFNα-2a: IFNα-2A purchased from Genscript, approved anti-HCV therapy
  Anti-HCV Activity (EC50): 7.6e-07 ± 1.15e-07 ng/mL

Reference: article PMC6274077, “In Vitro Study on Anti-Hepatitis C Virus Activity of Spatholobus suberectus Dunn” (Molecules, 2016)
